# Antibody variant affinities, Ab-14 heavy chain, assay 1

Data: MIT Lincoln Laboratory AlphaSeq set, Engelhart et al. 2022, doi:10.1038/s41597-022-01779-4, as distributed in FLAb.

Binding partner: SARS-CoV-2 spike HR2 peptide, sequence PDVDLGDISGINAS.

The variants keep the light chain, the linker and the frameworks of Ab-14 (scFv order VH, three GGGGS repeats, VL).
VH: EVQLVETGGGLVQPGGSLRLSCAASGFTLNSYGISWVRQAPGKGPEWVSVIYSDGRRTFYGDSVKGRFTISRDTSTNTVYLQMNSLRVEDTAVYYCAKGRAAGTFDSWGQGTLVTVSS
VL: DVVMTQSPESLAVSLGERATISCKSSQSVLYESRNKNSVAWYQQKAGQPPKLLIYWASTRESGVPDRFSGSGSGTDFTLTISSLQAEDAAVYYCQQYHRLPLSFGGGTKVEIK

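Phage display of a naive human antibody library on the peptide gave the parent. Variants in AAYL49 differ from the parent at up to three CDR positions; double and triple changes were sampled at random. The scFvs were displayed on barcoded MATa yeast, the peptide on MATalpha yeast. Binding brings cells together so that they mate, and sequencing counts the barcode pairs among the diploids. The ratio of observed to expected reads was calibrated, replicate by replicate, on BCL2-family standards whose Kd was known from biolayer interferometry. There are three technical replicates.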

Variants are written as CDR1, CDR2 and CDR3 of the heavy chain (limits as in the source). Parent: GFTLNSYGIS, VIYSDGRRTFYGDSVK, GRAAGTFDS.
All variants listed here change V64 of the VH, counted from its first residue.
Scale: log10 of Kd in nM, estimated from mating counts; low values are strong binders.
A pair that was not seen in that replicate is written "nd"; this usually means weak binding, but a binder can also be missed.
Three control strains display no target. For library AAYL49, 15% of the pairings with them gave a signal, with a median of 4.06 and one signal in twenty below 2.83, so weak values seen in few replicates may be background.
For reference, the parent read 0.65 as the reference entry and 4.11 (one replicate of three) as a member of this library.

For GFDLNSYGIS / VIYSDGRRTEYGDSLK / GRAAGTFDS, the assay gave 1.35, 1.81, 1.16. For GFTLNSYGIS / VHYSDGRRTFYGDSCK / GRAAGTFDS, the assay gave nd, nd, nd. With GFSLNSYGIS / VIYSDGRRTFYGDSMK / GSAAGTFDS the result was 2.05, 1.87, 2.07. With GFTLNSYGIN / VIYSDGRRTHYGDSQK / GRAAGTFDS the result was nd, nd, nd. With GFTKNSYGIS / VIYSDGRRTFYGDSPK / GWAAGTFDS the result was nd, nd, 3.74. With GGTLNSYGIS / VIYSDGRRTFYGDSTK / GDAAGTFDS the result was nd, nd, nd. Variant GFTLNSYGIS / VIYSHGRRTFYGVSSK / GRAAGTFDS gave nd, nd, nd. Variant GFTLNSYGIR / VIYSNGRRTFYGDSIK / GRAAGTFDS gave nd, nd, nd. With GFTLNSYGIS / VIYSDLRRTFIGDSHK / GRAAGTFDS the result was nd, 4.01, nd.

Variant GFTLNSYGIS / VIYSDGRRTFQGDSMK / GRAAGTFDS showed 5.02, nd, nd. Variant GFTLNSYGIS / VIYSDPRRTFYGDSGK / GRAAGTFDS showed nd, nd, nd. With GGTLNSYGIS / VIYSDGRRTFYGDSRK / GRAAKTFDS the result was nd, 3.05, 4.30. With GFTLNCYGIS / VIYSDGRRTFYGESNK / GRAAGTFDS the result was nd, nd, nd. With GFTLNSYGIS / VIYSDGRRTFAGDSLK / GFAAGTFDS the result was nd, nd, nd. With GFTLNSYGIS / VIYSDGRRTFYGDSTK / ARAAGTQDS the result was 3.20, 2.92, 4.52. For GFTLNSYGIG / VIYSDGRRTFYGDSMK / GRAAGTFDS, the assay gave 3.88, 3.62, nd. With GFTLNSYGIS / VIYSDGRRTFYGDMPK / GQAAGTFDS the result was nd, nd, nd. For FFTLNSYGIP / VIYSDGRRTFYGDSFK / GRAAGTFDS, the assay gave nd, 3.75, nd.

Variant GFTLNSYGIS / VIYSDGIRTFYGDSLK / GRAAGTFDK showed nd, nd, nd. Variant GFTLNSYGIS / PIYSDGRRTFYGDSIC / GRAAGTFDS gave nd, nd, nd. Variant GFTLNSYGIS / VIWSDGRRTFYGDSKK / GRMAGTFDS gave nd, nd, nd. Variant GFTLNSYQIS / VQYSDGRRTFYGDSNK / GRAAGTFDS gave nd, nd, nd. With GFTLNMYGIS / VIYSDGRTTFYGDSQK / GRAAGTFDS the result was 4.31, nd, nd. Variant GFTLNSYGIS / VIYSDGRRTFYPDSEK / GGAAGTFDS gave 6.56, 3.62, nd. Variant GFTLNSYGIS / VIYSDGRRTFYGDSEK / GRAAGSFDS gave 6.06, nd, nd. With GFTLGSYGIS / VIYSDGRRTFYGDSKK / GRIAGTFDS the result was 2.06, 1.53, 1.83. Variant GFTLNSYSIS / VIYSDGRRTFIGDSRK / GRAAGTFDS showed nd, nd, nd.

Variant GKTLNSYGIS / VFYSDGRRTFYGDSPK / GRAAGTFDS gave nd, nd, 3.93. Variant GFTLNSYGIS / VITSDGRRTFYGDSDK / GRAAGFFDS gave nd, nd, nd. Variant GFTLNSYGIS / VIYSDGRRTFYGSSGK / GRAAGTFDS gave 2.63, 2.79, nd. Variant GFTLNSYGIS / VIYSDGRRTFYGDSAK / GRAAETFDD gave 1.54, 1.65, 0.78. Variant GFTLNSYGIS / VIYADGRRTFYGDSRK / GRAATTFDS showed nd, nd, 4.93. For GFTLNSYGIS / VIYSDGRMTFYGDSMK / GRAAGTPDS, the assay gave 4.55, nd, nd. With GFTLNSYGIS / VIYSDGRRTFYGDSRK / GRAAWTFDS the result was nd, 4.01, nd. With GFTLNSYGIS / VIYSMGRRTFYGISNK / GRAAGTFDS the result was nd, 4.13, 4.07. Variant GFTLNSYGIS / VIYLDGRRTFYGDSNK / GRAMGTFDS showed nd, nd, nd.

For GFTLNSYGPS / VIYSDPRRTFYGDSTK / GRAAGTFDS, the assay gave nd, nd, nd. Variant GFTLNSLGIE / VIYSDGRRTFYGDSDK / GRAAGTFDS gave 3.32, 3.61, nd. Variant GFTLNSYGIS / VIYEDGVRTFYGDSNK / GRAAGTFDS showed 4.50, nd, 4.90. For GFTLNFYGIS / VIYSDGRRTFYMDSSK / GRAAGTFDS, the assay gave 4.38, nd, nd. Variant GFTLQSYGIS / VIYSDGRRTFYGDSLK / GRAAGVFDS showed nd, 4.53, nd. For GFTLNSYGIS / FIYSDGRRTFYGDSAK / GRAAGTYDS, the assay gave nd, nd, nd. With DFTLNHYGIS / VIYSDGRRTFYGDSDK / GRAAGTFDS the result was 6.34, nd, nd. For GFTLNSYGIS / FIYSDGRRTFYGESHK / GRAAGTFDS, the assay gave 4.18, 3.32, nd. Variant GFTLNSYGIS / VIYSDLRRTFYGDSTK / GRTAGTFDS gave nd, nd, nd.

Variant GFTLNSYGIS / VIYSKGRRTFYGDSLK / GRAAGTFDP showed 3.49, 3.78, nd.

Top 5 of the variants detected in all replicates, tightest first:

The variant GFTLNSYGIS / VIYSDGRRTFYGDSAK / GRAAETFDD showed 1.54, 1.65, 0.78.
The variant GFDLNSYGIS / VIYSDGRRTEYGDSLK / GRAAGTFDS showed 1.35, 1.81, 1.16.
The variant GFTLGSYGIS / VIYSDGRRTFYGDSKK / GRIAGTFDS showed 2.06, 1.53, 1.83.
The variant GFSLNSYGIS / VIYSDGRRTFYGDSMK / GSAAGTFDS showed 2.05, 1.87, 2.07.
The variant GFTLNSYGIS / VIYSDGRRTFYGDSTK / ARAAGTQDS showed 3.20, 2.92, 4.52.